# Values quoted from earlier work, collected in paper PMC8954540, “A New Class of PSMA-617-Based Hybrid Molecules for Preoperative Imaging and Intraoperative Fluorescence Navigation of Prostate Cancer” (Pharmaceuticals, 2022).
# Chains of the proteins cited; added tags and fusions are not shown.
# UniProt Q04609, whole entry: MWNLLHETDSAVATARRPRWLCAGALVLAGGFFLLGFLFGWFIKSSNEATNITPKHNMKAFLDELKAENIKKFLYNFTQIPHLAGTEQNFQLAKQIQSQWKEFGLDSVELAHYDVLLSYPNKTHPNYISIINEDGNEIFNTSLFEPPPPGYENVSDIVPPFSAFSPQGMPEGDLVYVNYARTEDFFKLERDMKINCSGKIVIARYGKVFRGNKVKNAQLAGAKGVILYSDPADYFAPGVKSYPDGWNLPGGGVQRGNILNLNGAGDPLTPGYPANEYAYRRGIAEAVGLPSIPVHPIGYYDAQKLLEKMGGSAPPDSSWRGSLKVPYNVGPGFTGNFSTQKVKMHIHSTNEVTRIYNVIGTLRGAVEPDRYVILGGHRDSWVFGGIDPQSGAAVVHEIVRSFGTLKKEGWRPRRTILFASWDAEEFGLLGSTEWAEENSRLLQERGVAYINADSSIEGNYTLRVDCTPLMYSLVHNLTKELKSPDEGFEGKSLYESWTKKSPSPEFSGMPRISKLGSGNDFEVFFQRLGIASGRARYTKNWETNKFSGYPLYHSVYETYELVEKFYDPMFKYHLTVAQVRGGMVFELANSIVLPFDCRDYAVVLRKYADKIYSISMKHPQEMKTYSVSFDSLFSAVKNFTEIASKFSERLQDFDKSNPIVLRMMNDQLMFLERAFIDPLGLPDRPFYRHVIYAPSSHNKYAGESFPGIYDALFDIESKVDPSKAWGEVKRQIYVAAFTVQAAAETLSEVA
# Molecular target: PSMA (Homo sapiens, UniProt Q04609)
# Details: radioligand of the competitive assay; cited from earlier work
compound,measurement,value
O=C(O)CC[C@H](NC(=O)N[C@@H](CCCCNC(=O)CCCCCNC(=O)CCc1ccc(O)c(CN(CCN(CC(=O)O)Cc2cc(CCC(=O)NCCCCCC(=O)NCCCC[C@H](NC(=O)N[C@@H](CCC(=O)O)C(=O)O)C(=O)O)ccc2O)CC(=O)O)c1)C(=O)O)C(=O)O,Kd,3.8 nM
